# Measurements reported in DBAASP.
# System: Staphylococcus aureus ATCC 12600
# Test: ≥ marks a high value that may be exact or a test limit, other limits are often not marked, values filed in µg/mL are converted to µM
structure (smiles),measurement,value
CC(C)C[C@H](NC(=O)[C@H](CC(C)C)NC(=O)[C@H](CCCN=C(N)N)NC(=O)[C@H](CC(C)C)NC(=O)[C@H](CC(C)C)NC(=O)[C@H](CCCN=C(N)N)NC(=O)[C@H](CCCN=C(N)N)NC(=O)[C@H](CC(C)C)NC(=O)[C@H](CC(C)C)NC(=O)[C@H](CCCN=C(N)N)NC(=O)[C@H](CC(C)C)NC(=O)[C@H](CC(C)C)NC(=O)[C@H](CCCN=C(N)N)NC(=O)[C@H](CC(C)C)NC(=O)[C@H](CCCN=C(N)N)NC(=O)[C@H](CC(C)C)NC(=O)[C@H](CCCN=C(N)N)NC(=O)[C@H](CCCN=C(N)N)NC(=O)[C@@H](N)CC(C)C)C(=O)O [LRRLRLRLLRLLRRLLRLL],MIC,≥ 128 µM
